Test results taken from article PMC10500703 (Journal of medicinal chemistry, 2021).
In brackets after ≈: the same amount, converted by molar mass.

Tested on: Mtb H37Rv
Test: microbe, parasite or virus in culture
Conditions: Mycobacterium tuberculosis

SMILES: CS(=O)(=O)NC(=O)NCc1cn(-c2ccc(C(F)(F)F)nc2)nc1-c1ccncc1 [Compound 42, N-(((3-(pyridin-4-yl)-1-(6-(trifluoromethyl)pyridin-3-yl)-1H-pyrazol-4-yl)methyl)carbamoyl)methanesulfonamide]
- MIC: 1.2 µM (≈ 0.528 µg/mL)
